Assay results as given in patent US20240360082A1, “SUBSTITUTED PYRIDONE COMPOUNDS USEFUL TO TREAT ORTH[…]” (priority 2021, published 2024).

Test system: influenza virus (multiple flu strains)
Assay: organism not typed
Details: MDCK
[1] = read-out: NA Alaska H3N2, NA assay, Alaska H3N2 strain
[2] = read-out: NA CAL H1N1, NA assay, CAL H1N1 strain
[3] = read-out: NA Alaska H3N2 IC50, NA assay, Alaska H3N2 strain
[4] = read-out: NA CAL H1N1 IC50, NA assay, CAL H1N1 strain
[5] = read-out: NA—PR8 H1N1, NA assay, PR8 H1N1 strain

SMILES	IC50 [1] [nM]	IC50 [2] [nM]	IC50 [5] [nM]	also measured
CC(Oc1ccc(-c2cc(C(N)=O)c(=O)[nH]c2C(F)(F)F)cc1)c1ccc2nonc2c1 (single isomer, unassigned) [Example 100, (R or S)-5-(4-(1-(benzo[c][1,2,5]oxadiazol-5-yl)ethoxy)phenyl)-2-oxo-6-(trifluoromethyl)-1,2-dihydropyridine-3-carboxamide]	100 to 1000	100 to 1000		
CC(Oc1ccc(-c2cc(C(N)=O)c(=O)[nH]c2C(F)(F)F)cc1)c1cncc(C#N)c1 (single isomer, unassigned) [Example 124, (R or S)-5-(4-(1-(5-cyanopyridin-3-yl)ethoxy)phenyl)-2-oxo-6-(trifluoromethyl)-1,2-dihydropyridine-3-carboxamide]	100 to 1000	100 to 1000		
NC(=O)c1cc(-c2ccc(OCC3COCC4(CC4)O3)cc2)c(C(F)(F)F)[nH]c1=O (single isomer, unassigned) [Example 335, (4-(4,7-dioxaspiro[2.5]octan-5-ylmethoxy)phenyl)-2-oxo-6-(trifluoromethyl)-1,2-dihydropyridine-3-carboxamide]				IC50 [3]: 10 to 100 nM; IC50 [4]: 10 to 100 nM
NC(=O)c1cc(-c2ccc(OCC3COCC(CF)O3)cc2)c(C(F)(F)F)[nH]c1=O (single isomer, unassigned) [Example 351, 5-(4-((6-(fluoromethyl)-1,4-dioxan-2-yl)methoxy)phenyl)-2-oxo-6-(trifluoromethyl)-1,2-dihydropyridine-3-carboxamide]				IC50 [3]: 10 to 100 nM; IC50 [4]: 100 to 1000 nM
NC(=O)c1cc(-c2ccc(CN3CCOCC3)cc2)c(C(F)(F)F)[nH]c1=O [Example 1, 5-(4-(morpholinomethyl)phenyl)-2-oxo-6-(trifluoromethyl)-1,2-dihydropyridine-3-carboxamide]	100 to 1000	1000 to 5000	100 to 1000	
NC(=O)c1cc(-c2ccc(CO)cc2)c(C(F)(F)F)[nH]c1=O [Example 2, 5-(4-(hydroxymethyl)phenyl)-2-oxo-6-(trifluoromethyl)-1,2-dihydropyridine-3-carboxamide]	100 to 1000	10000 to 25000	100 to 1000	
NC(=O)c1cc(-c2ccc(O)cc2)c(C(F)(F)F)[nH]c1=O [Example 3, 5-(4-hydroxyphenyl)-2-oxo-6-(trifluoromethyl)-1,2-dihydropyridine-3-carboxamide]	1000 to 5000			
NC(=O)c1cc(-c2ccc(OCc3ccccc3)cc2)c(C(F)(F)F)[nH]c1=O [Example 4, 5-(4-(benzyloxy)phenyl)-2-oxo-6-(trifluoromethyl)-1,2-dihydropyridine-3-carboxamide]	100 to 1000	1000 to 5000	100 to 1000	
NC(=O)c1cc(-c2ccc(CN3CCCC3)cc2)c(C(F)(F)F)[nH]c1=O [Example 5, 2-oxo-5-(4-(pyrrolidin-1-ylmethyl)phenyl)-6-(trifluoromethyl)-1,2-dihydropyridine-3-carboxamide]			5000 to 10000	
N#Cc1cccc(-c2cc(C(N)=O)c(=O)[nH]c2C(F)(F)F)c1 [Example 8, 5-(3-cyanophenyl)-2-oxo-6-(trifluoromethyl)-1,2-dihydropyridine-3-carboxamide]			10000 to 25000	
NC(=O)c1cc(-c2cccc(NC=O)c2)c(C(F)(F)F)[nH]c1=O [Example 10, 5-(3-formamidophenyl)-2-oxo-6-(trifluoromethyl)-1,2-dihydropyridine-3-carboxamide]	1000 to 5000	1000 to 5000		
CS(=O)(=O)Nc1ccc(-c2cc(C(N)=O)c(=O)[nH]c2C(F)(F)F)cc1 [Example 11, 5-(4-(methylsulfonamido)phenyl)-2-oxo-6-(trifluoromethyl)-1,2-dihydropyridine-3-carboxamide]	100 to 1000	1000 to 5000		
NC(=O)c1cc(-c2ccc(OC(F)F)cc2)c(C(F)(F)F)[nH]c1=O [Example 12, 5-(4-(difluoromethoxy)phenyl)-2-oxo-6-(trifluoromethyl)-1,2-dihydropyridine-3-carboxamide]	5000 to 10000	25000 to 50000	10000 to 25000	
COCOc1ccc(-c2cc(C(N)=O)c(=O)[nH]c2C(F)(F)F)cc1 [Example 13, 5-(4-(methoxymethoxy)phenyl)-2-oxo-6-(trifluoromethyl)-1,2-dihydropyridine-3-carboxamide]			1000 to 5000	
COc1ccc(-c2cc(C(N)=O)c(=O)[nH]c2C(F)(F)F)cc1F [Example 14, 5-(3-fluoro-4-methoxyphenyl)-2-oxo-6-(trifluoromethyl)-1,2-dihydropyridine-3-carboxamide]	1000 to 5000	10000 to 25000	1000 to 5000	
COCc1ccc(-c2cc(C(N)=O)c(=O)[nH]c2C(F)(F)F)cc1 [Example 15, 5-(4-(methoxymethyl)phenyl)-2-oxo-6-(trifluoromethyl)-1,2-dihydropyridine-3-carboxamide]			1000 to 5000	
NC(=O)c1cc(-c2ccccc2)c(C(F)(F)F)[nH]c1=O [Example 16, 2-oxo-5-phenyl-6-(trifluoromethyl)-1,2-dihydropyridine-3-carboxamide]			1000 to 5000	
CC(C)Oc1ccc(-c2cc(C(N)=O)c(=O)[nH]c2C(F)(F)F)cc1 [Example 17, 5-(4-isopropoxyphenyl)-2-oxo-6-(trifluoromethyl)-1,2-dihydropyridine-3-carboxamide]			1000 to 5000	
COc1ccc(-c2cc(C(N)=O)c(=O)[nH]c2C(F)(F)F)cc1Cl [Example 18, 5-(3-chloro-4-methoxyphenyl)-2-oxo-6-(trifluoromethyl)-1,2-dihydropyridine-3-carboxamide]			1000 to 5000	
CNC(=O)c1ccc(-c2cc(C(N)=O)c(=O)[nH]c2C(F)(F)F)cc1 [Example 19, 5-(4-(methylcarbamoyl)phenyl)-2-oxo-6-(trifluoromethyl)-1,2-dihydropyridine-3-carboxamide]			1000 to 5000	
N#CCc1ccc(-c2cc(C(N)=O)c(=O)[nH]c2C(F)(F)F)cc1 [Example 20, 5-(4-(cyanomethyl)phenyl)-2-oxo-6-(trifluoromethyl)-1,2-dihydropyridine-3-carboxamide]			1000 to 5000	
CN(C)CCCOc1ccc(-c2cc(C(N)=O)c(=O)[nH]c2C(F)(F)F)cc1 [Example 21, 5-(4-(3-(dimethylamino)propoxy)phenyl)-2-oxo-6-(trifluoromethyl)-1,2-dihydropyridine-3-carboxamide]			5000 to 10000	
N#CCc1cccc(-c2cc(C(N)=O)c(=O)[nH]c2C(F)(F)F)c1 [Example 22, 5-(3-(cyanomethyl)phenyl)-2-oxo-6-(trifluoromethyl)-1,2-dihydropyridine-3-carboxamide]			5000 to 10000	
NC(=O)c1cc(-c2cccc(CN3CCOCC3)c2)c(C(F)(F)F)[nH]c1=O [Example 23, 5-(3-(morpholinomethyl)phenyl)-2-oxo-6-(trifluoromethyl)-1,2-dihydropyridine-3-carboxamide]			5000 to 10000	
Cc1cccc(-c2cc(C(N)=O)c(=O)[nH]c2C(F)(F)F)c1 [Example 24, 2-oxo-5-(m-tolyl)-6-(trifluoromethyl)-1,2-dihydropyridine-3-carboxamide]			5000 to 10000	
NC(=O)c1cc(-c2cccc(CO)c2)c(C(F)(F)F)[nH]c1=O [Example 25, 5-(3-(hydroxymethyl)phenyl)-2-oxo-6-(trifluoromethyl)-1,2-dihydropyridine-3-carboxamide]			5000 to 10000	
Cc1ccc(-c2cc(C(N)=O)c(=O)[nH]c2C(F)(F)F)cc1 [Example 26, 2-oxo-5-(p-tolyl)-6-(trifluoromethyl)-1,2-dihydropyridine-3-carboxamide]			5000 to 10000	

Like-named read-outs stand apart in the source and are kept apart here.
